Binding of CDR-mutated scFvs to a peptide of the spike HR2 region

Values reported by Engelhart et al. 2022, doi:10.1038/s41597-022-01779-4 (FLAb copy).

Target peptide (SARS-CoV-2 spike, HR2 region): PDVDLGDISGINAS

Parent: Ab-14, a human scFv built as VH, a 15-residue (Gly4Ser)3 linker, VL. Only the CDRs of the heavy chain vary.
VH: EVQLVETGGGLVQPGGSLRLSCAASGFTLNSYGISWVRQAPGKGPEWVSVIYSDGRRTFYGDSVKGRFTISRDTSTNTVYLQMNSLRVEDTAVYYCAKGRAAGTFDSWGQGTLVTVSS
VL: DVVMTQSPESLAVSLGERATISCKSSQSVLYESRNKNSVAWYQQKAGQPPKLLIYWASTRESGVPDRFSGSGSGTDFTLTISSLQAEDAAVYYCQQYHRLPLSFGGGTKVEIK

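The starting antibody came from a phage panning campaign against this peptide. Library AAYL49 holds single substitutions and randomly drawn double and triple substitutions in the CDRs. The scFvs were displayed on barcoded MATa yeast, the peptide on MATalpha yeast. Binding brings cells together so that they mate, and sequencing counts the barcode pairs among the diploids. Scores were corrected for input abundance and mapped to Kd with protein pairs of known affinity run in the same pool. Each pool was mated in three replicate cultures.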

Positions count from residue 1 of the parent VH; T28H puts H in place of T. Numbers give log10(Kd / nM), so 0 is 1 nM and 3 is 1 µM. Smaller is tighter. "nd" marks a missing value. The strain was present, yet no cells mated with the target were sequenced in that replicate, which points to weak or no binding. Nonspecific signal, from three strains lacking the peptide, appeared in 15% of pairings of library AAYL49, centred on 4.06 (5% of these signals below 2.83); values are not corrected for it. The control count says in how many pairings with the empty strains this scFv gave a signal, with their mean in brackets.

changes,log10 Kd (nM) by replicate,control signals
T28H Y60Q,nd nd nd,0 of 9
I34S T58L D106Q,1.81 1.51 1.75,3 of 9 (4.99)
R57C G61A T104Y,4.25 4.33 5.32,2 of 9 (3.88)
Y32D G99L A101V,nd nd nd,0 of 9
G33H G55P R100E,nd nd nd,0 of 9
S35C I51Y G55H,nd nd nd,0 of 9
V50S S53R T58E,nd nd nd,0 of 9
S53G D62P,2.79 2.48 2.84,4 of 9 (4.16)
N30F G33E D54Q,nd 3.13 nd,0 of 9
F59S A102C,6.38 3.64 5.04,6 of 9 (4.28)
S35Y F59N S63K,nd nd nd,0 of 9
I51K R56C Y60F,nd nd 5.27,3 of 9 (3.81)
S53F G103E,nd nd nd,2 of 9 (3.41)
G33T G99R R100T,nd nd nd,1 of 9 (2.47)
T58E D62L K65A,3.40 nd nd,0 of 9
T58R K65I S107L,1.78 1.53 1.23,0 of 9
S31M R56T R57N,2.38 2.20 3.46,0 of 9
T28L I51C D54C,nd nd 3.70,2 of 9 (3.69)
Y52D T104C S107R,nd nd nd,1 of 9 (2.55)
S53V F105E S107A,2.44 2.58 3.05,4 of 9 (3.74)
T28P G33H S35Y,5.92 4.12 nd,4 of 9 (4.27)
Y52P R57P Y60E,nd nd nd,0 of 9
F27C Y60Q,nd nd nd,0 of 9
I34V Y52I D106N,nd nd nd,1 of 9 (3.50)
V64L,nd nd nd,2 of 9 (4.46)
Y32V S63T K65I,nd nd nd,1 of 9 (3.16)
R57D G61S G103K,nd 4.44 nd,2 of 9 (4.11)
F59M D62L T104G,4.17 2.51 nd,0 of 9
N30H A101L,0.61 0.85 1.09,0 of 9
G26Q V50S T58Y,2.89 nd nd,0 of 9
G26L I34Y Y60D,nd nd nd,3 of 9 (4.11)
I51W K65V A102C,nd nd nd,0 of 9
T28C V50G T58F,nd nd 4.46,0 of 9
I51T G61V D106P,nd 2.33 nd,0 of 9
I34E A101M A102I,3.66 nd nd,0 of 9
I34R F59W G103R,nd nd 3.49,3 of 9 (3.71)
Y52P A102V,nd nd nd,1 of 9 (4.69)
N30S S53H S63Q,nd nd nd,0 of 9
I34C S35Y F59H,nd nd nd,1 of 9 (3.67)
R57L V64Q F105S,nd nd nd,1 of 9 (4.89)
S63F T104W,1.65 0.88 0.87,0 of 9
G61P K65G A102Y,nd nd nd,0 of 9
L29T R57N G61N,nd nd nd,1 of 9 (4.28)
G26D R56Y V64H,nd nd nd,1 of 9 (3.52)
L29T V50E R100P,nd nd nd,0 of 9
S35N G99F A102F,nd nd nd,0 of 9
S35F K65L D106A,nd nd nd,1 of 9 (4.61)

A selection of 3 entries from above:

changes	log10 Kd (nM) by replicate	control signals
N30F G33E D54Q	nd 3.13 nd	0 of 9
I34C S35Y F59H	nd nd nd	1 of 9 (3.67)
I51W K65V A102C	nd nd nd	0 of 9